Assay results taken from the Human Domainome abundance scans (Beltran et al. 2025).

B1: X-ray repair cross-complementing protein 6, residues 558 to 609; numbered along this chain, P12956 (parent)
chain: EYSEEELKTHISKGTLGKFTVPMLKEACRAYGLKSGLKKQELLEALTKHFQD

Variants of: B1
Assay: abundance fitness (aPCA) (normalised: wild type 0, dead -1); higher = more abundant; growth selection in yeast, the domain comes from the species named
Settings: Homo sapiens

Abundance fitness, by site and new letter:
A27: S -0.545, M 0.006, K -0.37, G -0.937, C -0.621, Q -0.62, I 0.072, T -0.351, L 0.021, W -0.179, V -0.195
P22: E 0.141, W -0.37, D 0.14, A 0.016, K 0.067, L -0.357, G -0.12, R -0.053, V -0.418, C -0.57, M -0.369, Y -0.245, I -0.161, S -0.122, Q 0.129, H 0.006, T -0.101, N 0.003
E41: D -0.083, F -0.59, K -0.506, N -0.245, Y -0.338, R -0.576, A -0.296, C -0.296, L -0.346, G -0.34, Q -0.16, P -0.808, W -0.826, H -0.518, I -0.694, M -0.294, V -0.506, S -0.424
L37: W -0.086, M -0.036, C -0.111, V 0.051, F -0.171, P -0.052, E 0.078, S -0.091, Y -0.11, K 0.031, H 0.17, N -0.327, T 0.031, I 0.075, Q -0.211, G 0.084, A 0.027, D 0.042
K38: Y -0.343, V -0.198, I -0.299, M -0.233, S -0.133, Q -0.055, R -0.101, W -0.79, G -0.062, H -0.147, P -0.256, F -0.573, D -0.04, T -0.091, L -0.107, A -0.14, N -0.178, C -0.048
L42: F -0.182
L33: S -0.98, P -0.924, A -0.752, F -0.691, M -0.649, Y -0.784, Q -0.722, T -0.982, K -1.26, D -0.637, G -0.912, E -0.613, W -1.06, R -0.9, C -0.406, V -0.025, I -0.104
K39: V -0.572, Y -0.652, W -0.893, N -0.998, M -1.09, F -0.857, R -0.12, G -0.606, E -0.658, I -0.835, S -0.648, P -0.381, Q -0.239, D -1.05, H -0.083, L -0.487
A30: N -0.471, P -0.562, H -0.635, M -0.011, G -0.309, I 0.299, R 0.086, Y 0.185, E -0.311, F -0.292, K 0.107, T -0.586, W -0.324, S -0.101, L 0.022, Q 0.037, C 0.203, D -0.357
C28: D -0.786, H -0.498, T -0.37, N -0.644, P -0.858, A -0.267, M -0.375, E -1.15, Y -0.939, W -0.844, V -0.153, F -0.278, G -0.443, L -0.322, S -0.5
G32: R -0.276, F -0.599, H -0.036, K -0.108, Q -0.496, Y -0.517, I -0.796, D -0.3, E -0.433, V -0.9, N -0.026, W -0.788, T -0.418, A -0.445, S -0.295, M -0.724
G36: Q -0.946, V -0.62, S -0.046, D 0.3
E26: V -0.21, G -0.166, Q 0.114, N -0.474, M -0.29, P -1.01, I -0.103, T -0.576, A -0.075, K -0.218, C -0.266, D -0.334, L -0.177, Y -0.412, R 0.002, H -0.02, F -0.438, S -0.082
L43: A -0.255
K34: F -0.347, C -0.073, E -0.038, Y -0.148, P 0, A -0.107, I -0.228, T -0.116, H -0.112, S -0.095, D -0.021, L -0.344, R -0.09, N -0.042, W -0.546, V -0.128
L24: D -0.676, V -0.95, T -1.15, W -1.02, F -0.884, Q -0.786, A -0.784, M -0.545, G -1.07, C -0.928, E -0.858, N -0.848, K -1, R -0.892, S -0.907
M23: P -0.643, L -0.373, D -0.277, S -0.22, W -0.124, K -0.048, G -0.413, I -0.488, H -0.582, R -0.182, N -0.781, Q -0.082, A -0.08, Y -0.18, F -0.36
Q40: N -0.009, Y -0.262, A -0.063, E 0.102, D 0.122, I -0.087, P -0.322, H 0.017, G -0.098, F -0.378, L -0.335, K -0.06, W -0.155, S 0.101, T -0.006, V -0.056, M -0.004, R -0.111, C -0.123
V21: M -0.2, R -0.262, Y 0.069, K -0.457, N -0.541, P -0.675, Q -0.035, I -0.204, L -0.119, S -0.597
S35: L -0.131, R -0.371, M -0.341, E -0.351, D -0.096, K -0.638, A 0.082, P -0.012, I -0.029, V 0.048, H -0.228, Y -0.371, N -0.61, G 0.012, Q -0.308, C 0, T 0.075, F -0.025, W -0.582
K25: G -0.339, S -0.121, N 0.212, Q 0.011, E -0.035, D -0.029, M -0.195, A -0.102, H -0.249, I 0.155, L -0.239, R -0.034, Y -0.544, W -0.231, T -0.02, P -1.11, F -0.266, C -0.009
R29: F -0.209, D 0.011, I -0.094, G -0.246, K 0.043, S -0.113, E -0.025, T -0.365, N 0.267, Q 0.061, W -0.314, M -0.043, A 0.028, P -0.538, L -0.215, H 0.023
Y31: G -0.685, Q -0.216, N -0.141, M -0.038, K -0.481, T -0.343, V -0.136, A -0.189, I -0.264, D -0.657, P -1.07, E -0.459, R -0.197, H 0.123, L -0.151, W -0.044, S -0.602
